Reference: PubChem BioAssay AID1347080 (ICCB-Longwood Screening Facility, Harvard Medical School, 2019)
Several values for one entry are separate records, joined by “and”; a condition that tells them apart may be missing. Equal entries are not always repeated. This is a selection; strong and weak results do not stand in their true shares. Activity calls are given as the source filed them.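 The calls were made as follows: active = compounds whose cell count with miR-34 switched on is under 0.7 times the count with it off; inactive = the rest.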

Experiment: sensitizers of A549 cells to miR-34 induction, primary screen, imaging, A549 dox-inducible miR-34, nuclei and caspase counts (AID 1347080); also: test concentration not given here
Conditions: A549 miR-34 inducible, Hoechst nuclei count, 48 h; active compounds read low; cell number ratio, induced over uninduced
For CN(CCCl)CCCl, the fold change was inactive: 0.916 and inactive: 0.94.
